Values quoted from earlier work as cited in patent publication US10772886B2, “CXCR-2 inhibitors for treating crystal arthropathy disorders” (ARDEA BIOSCIENCES, INC., priority 2016, dated 2020).
Like-named read-outs stand apart in the source and are kept apart here.

Settings: cited from earlier work

In the case of COc1cc2c(c(OC)c1OC)-c1ccc(OC)c(=O)cc1[C@@H](NC(C)=O)CC2 [Colchicine, COLCHICINE, reference compound], the diarrhea (lower dose regimen: 1.2 mg at onset of acute gout attack, then 0.6 mg after one hour) is listed as 22% and the diarrhea (standard dose regimen: 1.2 mg at onset of acute gout attack, then 0.6 mg every hour for 6 hours) is listed as 73%.
